# Assay results from patent US20250346582A1, “SPLEEN TYROSINE KINASE INHIBITORS AND METHODS OF USE THEREOF” (THE BOARD OF TRUSTEES OF THE UNIVERSITY OF ILLINOIS, priority 2022, published 2025).
# Legend:
# Type in all cases: cell-based
# [1] = biological target: T1, scaffolding function of Syk (Homo sapiens, UniProt P43405); assay: Co-immunoprecipitation with Syk, entospletinib-resistant MV4-11 cells; details: 5 μM
# T1 construct: host or cells: MV4-11 AML cells (naive and entospletinib-resistant)
# Experimental: (§1) MV-4-11 cells were collected by centrifugation, washed twice with phosphate phosphate-buffered saline (PBS) and resuspended in the immunoprecipitation (IP) buffer (50 mM HEPES, pH 7.4, 150 mM NaCl, 1 mM MgCl2, 1 mM EGTA, and 0.25 mM GTP) with 0.2-0.5% Triton X-100 and a protease inhibitor mix (Sigma-Aldrich). Lysates were prepared after 5 min of incubation on ice by repeated pipetting and centrifugation for 10 min at 12,000 g and at 4° C. For immunoprecipitation, the SYK-specific antibody was immobilized onto 100 μl Dynabeads/protein A (ThermoFisher) and the excess antibody was washed away by placing the tube in a DynaMag magnet and removing the supernatant. The resuspended beads were then incubated with the cell extract supernatant containing 500 μg of proteins for 1 h at 4° C. The immunoprecipitates were rinsed three times with the IP buffer and eluted with 30 μl of the sample buffer containing sodium dodecyl sulfate (SDS). For detection of proteins in total extracts (i.e., Input), 30 μg of the sample was loaded in each gel lane for western blot analysis.
# HL60 cells = assay: XTT cell proliferation assay, HL60 cells
# Experimental: (§2) MV4-11 or HL-60 cells were seeded into a clear-bottom 96-well plate containing varying concentrations of inhibitors in the optimal growth media described above and the mixtures were incubated for 16 h. Cells were then treated with a mixture of XTT-labeling reagents and the electron coupling reagents according to the manufacturer's protocol (Roche). After 4 h, the absorbance values at 475 nm and at 660 nm were simultaneously measured by Synergy™ Neo spectrofluorometer at 25° C. Cells with the growth media was used for background correction.
# [2] = system: entospletinib-resistant MV4-11 cells; assay: XTT cell proliferation assay, entospletinib-resistant MV4-11 cells; details: Homo sapiens, MV4-11, read-out: Imax, inhibition of proliferation (XTT assay)
# Experimental: MV4-11 cells were treated with entospletinib (or WC36) to induce drug-resistance cells as reported previously^37. MV4-11 cells were incubated first with 500 nM entospletinib (or WC36) for the first week, then the drug concentration was increased 0.5 μM per week until it reached 5 μM (i.e., 10 weeks). Then the concentration was maintained at 5 μM. When the cells remained >90% viable in the presence of 5 μM (i.e., 10×IC50) entospletinib, they were considered entospletinib-resistant.
# as §2
# [3] = biological target: T1, scaffolding function of Syk; assay: Co-immunoprecipitation with Syk, naïve MV4-11 cells; details: 5 μM
# Experimental: as §1
smiles,measurement,setting,value
"c1cn2cc(-c3ccc4cn[nH]c4c3)nc(Nc3ccc(N4CCOCC4)cc3)c2n1 [entospletinib, reference compound]",suppression of co-precipitation with Syk,[1],did not
same,inhibition of proliferation (XTT assay),HL60 cells,ineffective
same,inhibition at 20 µM,[2],≤ 50%
same,suppression of the scaffolding function of Syk (co-precipitation),[3],little to no effect
